Values of other authors as cited in patent US20040143023A1, “Materials and methods for synthesizing stilbenes” (priority 2000, published 2004).

System: tubulin

For `COc1ccc(/C=C\c2cc(OC)c(OC)c(OC)c2)cc1O` [cis-combretastatin A-4, Z-1-(3′-Hydroxy-4′-methoxyphenyl)-2-(3″,4″,5″-trimethoxyphenyl)ethene], the binding to tubulin is listed as “binding strongly”.
